Like-named read-outs stand apart in the source and are kept apart here.
Assays:
[1] = system: acetylation of the histone H3K23 marker in U2OS cells; test: Histone H3 Lysine 23 Acetylation Biomarker Assay; format: cell-based; conditions: Homo sapiens, 24 h
Description: Compounds may be tested for their ability to inhibit acetylation of the histone H3K23 marker in the following assay:
The cell line U2OS was seeded at a density of 9,000 cells per well in 96 well optical quality tissue culture plates in RPMI medium and 10% foetal bovine serum, and allowed to adhere for 24 hours under standard culture conditions (37 degree Celsius, 5% CO2). At the end of this period the medium was aspirated. […] After incubation for 24 hours, the cells were fixed with 3.7% formaldehyde in PBS for 20 minutes at room temperature, washed (5×5 minutes) with phosphate buffer saline containing 0.1% Tween 20 and blocked with Odyssey blocking buffer (LI-COR, Lincoln, NE) containing 0.1% TritonX100. Anti-H3K23ac specific antibody (Abcam ab177275) in Odyssey blocking buffer containing 0.1% Tween 20 was added and incubated for 16 hours at 4 degree Celsius. After washing (as above), a secondary antibody labelled with Alexa647 dye (LifeTechnologies) and Hoechst 33342 (1 μg/mL, SigmaAldrich) were added for 1 hour incubation. Plates were washed as previously and read on a PerkinElmer Phenix high content imaging platform. Using a Columbus image analysis pipeline, individual nuclei were located by Hoechst 33342 stain and the acetylation level was calculated from the Alexa647-related intensity in the same area.

Amino acid sequences for entries named in this document (tags omitted). Chains listed by the source or under a name are the forms on record and can include a tag or linker. Residues count along the entry.
UniProt Q92794, other isoform, or with tags, fused parts or gaps: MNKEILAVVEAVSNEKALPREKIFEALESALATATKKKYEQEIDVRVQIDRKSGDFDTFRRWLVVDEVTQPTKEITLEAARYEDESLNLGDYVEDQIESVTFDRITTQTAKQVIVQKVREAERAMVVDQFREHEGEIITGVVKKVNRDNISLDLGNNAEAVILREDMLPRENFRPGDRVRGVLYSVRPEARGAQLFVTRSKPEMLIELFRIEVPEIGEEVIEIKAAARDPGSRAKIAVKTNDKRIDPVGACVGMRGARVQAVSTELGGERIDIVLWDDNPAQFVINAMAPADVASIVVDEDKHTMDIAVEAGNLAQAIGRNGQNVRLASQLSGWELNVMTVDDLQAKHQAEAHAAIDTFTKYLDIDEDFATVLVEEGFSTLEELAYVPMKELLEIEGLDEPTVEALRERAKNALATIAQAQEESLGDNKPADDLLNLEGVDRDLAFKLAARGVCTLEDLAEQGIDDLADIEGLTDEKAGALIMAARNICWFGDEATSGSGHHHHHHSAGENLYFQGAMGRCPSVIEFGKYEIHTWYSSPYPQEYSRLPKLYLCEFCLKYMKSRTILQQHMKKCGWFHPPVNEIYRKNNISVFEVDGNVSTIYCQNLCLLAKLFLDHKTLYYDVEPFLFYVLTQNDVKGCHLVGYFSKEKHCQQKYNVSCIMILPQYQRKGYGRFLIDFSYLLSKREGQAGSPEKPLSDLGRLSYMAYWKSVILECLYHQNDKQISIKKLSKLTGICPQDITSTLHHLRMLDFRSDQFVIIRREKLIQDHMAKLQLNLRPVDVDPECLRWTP
UniProt Q92993, other isoform, or with tags, fused parts or gaps: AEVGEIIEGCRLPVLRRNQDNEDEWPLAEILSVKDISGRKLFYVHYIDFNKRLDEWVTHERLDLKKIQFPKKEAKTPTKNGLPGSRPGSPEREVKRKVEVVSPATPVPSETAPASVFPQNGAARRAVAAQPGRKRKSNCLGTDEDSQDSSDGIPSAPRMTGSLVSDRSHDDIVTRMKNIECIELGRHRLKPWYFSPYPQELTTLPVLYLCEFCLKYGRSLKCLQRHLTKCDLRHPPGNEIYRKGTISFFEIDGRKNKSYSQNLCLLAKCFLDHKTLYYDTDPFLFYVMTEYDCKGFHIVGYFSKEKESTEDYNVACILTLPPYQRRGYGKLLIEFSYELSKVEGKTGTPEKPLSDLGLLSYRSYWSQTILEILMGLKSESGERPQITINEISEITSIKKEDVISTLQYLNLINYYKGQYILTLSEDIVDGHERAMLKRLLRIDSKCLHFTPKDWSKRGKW
UniProt O95251, other isoform, or with tags, fused parts or gaps: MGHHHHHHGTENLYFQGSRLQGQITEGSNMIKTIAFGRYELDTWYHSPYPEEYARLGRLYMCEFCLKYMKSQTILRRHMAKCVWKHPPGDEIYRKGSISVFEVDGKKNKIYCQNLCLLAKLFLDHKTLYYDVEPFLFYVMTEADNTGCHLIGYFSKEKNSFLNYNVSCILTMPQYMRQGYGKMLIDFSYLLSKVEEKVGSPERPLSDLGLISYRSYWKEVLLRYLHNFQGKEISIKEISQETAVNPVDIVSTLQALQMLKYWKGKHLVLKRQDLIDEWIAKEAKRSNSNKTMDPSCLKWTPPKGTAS
UniProt Q9H7Z6, 177-447: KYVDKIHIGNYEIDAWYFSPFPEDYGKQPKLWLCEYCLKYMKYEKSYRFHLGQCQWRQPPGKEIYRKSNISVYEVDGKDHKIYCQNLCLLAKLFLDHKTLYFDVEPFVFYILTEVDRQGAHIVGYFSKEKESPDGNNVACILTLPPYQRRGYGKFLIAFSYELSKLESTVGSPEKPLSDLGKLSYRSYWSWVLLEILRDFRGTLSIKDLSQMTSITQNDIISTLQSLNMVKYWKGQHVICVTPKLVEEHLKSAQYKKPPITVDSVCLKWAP

[2] = system: acetylation of the histone H3 Lysine 14 marker in U2OS cells; test: Histone H3 Lysine 14 Acetylation Biomarker Assay; format: cell-based; conditions: Homo sapiens, 24 h
Description: Compounds may be tested for their ability to inhibit acetylation of the histone H3 Lysine 14 marker in the following assay:
The cell line U2OS was seeded at a density of 3,000 cells per well in 384-well optical quality tissue culture plates in RPMI medium supplemented with 10% foetal bovine serum and 10 mM Hepes. The cells were allowed to adhere for 24 hours under standard culture conditions (37 degree Celsius, 5% CO2). At the end of this period the cells were washed with serum free medium. […] […]. After washing, a secondary antibody labelled with AlexaFluor 488 dye (ThermoFisher) and Hoechst 33342 (1 μg/mL, Life Technologies) were added for 2 hours incubation at room temperature. Plates were washed and read on a PerkinElmer Opera HCS high content imaging platform. Using a Columbus image analysis pipeline, individual nuclei were located by Hoechst 33342 stain and the acetylation level was calculated from the AlexaFluor 488-related intensity in the same area.

[3] = system: histone H2A.Z Lysine 7 acetylation marker in U2OS cells; test: H2A.Z Lysine 7 Acetylation Biomarker Assay; format: cell-based; conditions: Homo sapiens, 24 h
Description: Compounds may be tested for their ability to inhibit the histone H2A.Z Lysine 7 acetylation marker in the following assay:
The cell line U2OS was seeded at a density of 3,000 cells per well in 384-well optical quality tissue culture plates in RPMI medium supplemented with 10% foetal bovine serum and 10 mM Hepes. The cells were allowed to adhere for 24 hours under standard culture conditions (37 degree Celsius, 5% CO2). At the end of this period the cells were washed with serum free medium. […] 2018, at 30 μM concentration. […]. After washing, a secondary antibody labelled with AlexaFluor 488 dye (ThermoFisher) and Hoechst 33342 (1 μg/mL, Life Technologies) were added for 2 hours incubation at room temperature. Plates were washed and read on a PerkinElmer Opera HCS high content imaging platform. Using a Columbus image analysis pipeline, individual nuclei were located by Hoechst 33342 stain and the acetylation level was calculated from the AlexaFluor 488-related intensity in the same area.

[4] = target: MOZ-KAT6A (Homo sapiens (Human), UniProt Q92794); test: Acetyltransferase biochemical assay (AlphaScreen), KAT6A
[5] = target: TIP60-KAT5 (Homo sapiens (Human), UniProt Q92993); test: Acetyltransferase biochemical assay (AlphaScreen), KAT5
[6] = target: HBO-KAT7 (Homo sapiens (Human), UniProt O95251); test: Acetyltransferase biochemical assay (AlphaScreen), KAT7
[7] = target: MOF-KAT8 (Homo sapiens (Human), UniProt Q9H7Z6); test: biochemical

`COc1ccc(-c2ccccc2)cc1-c1cc(NS(=O)(=O)c2c(OC)cccc2OC)no1` [Example 84, 2,6-Dimethoxy-N-(5-(4-methoxy-[1,1′-biphenyl]-3-yl)isoxazol-3-yl)benzenesulfonamide] gave an IC50 [1] of 0.645 µM, an IC50 [2] of 0.878 µM and an IC50 [3] of 3.15 µM.
Work on `O=S(=O)(Nc1cc(-c2ccccc2Br)no1)c1ccccc1` [Example 79, N-(3-(2-bromophenyl)isoxazol-5-yl)benzenesulfonamide] yielded an IC50 [4] of 28.4 µM.
With `COc1ccc(C#N)cc1-c1cc(NS(=O)(=O)c2c(OC)cccc2OC)no1` [Example 87, N-(5-(5-Cyano-2-methoxyphenyl)isoxazol-3-yl)-2,6-dimethoxybenzenesulfonamide] the IC50 [5] was 19.2 µM, the IC50 [6] was 5.41 µM and the IC50 [7] was 76.6 µM.
With `O=S(=O)(Nc1cc(-c2ccc(Br)cc2)on1)c1ccccc1` [Example 62, N-(5-(4-Bromophenyl)isoxazol-3-yl)benzenesulfonamide] the IC50 [4] was 52.6 µM.
`COc1ccc(Br)cc1-c1cc(NS(=O)(=O)c2c(OC)cccc2OC)no1` [Example 1, N-(5-(5-Bromo-2-methoxyphenyl)isoxazol-3-yl)-2,6-dimethoxybenzenesulfonamide] was tested, and the IC50 [1] was 0.0284 µM, the IC50 [2] was 0.124 µM and the IC50 [3] was 2.23 µM.
In the case of `COC(=O)c1ccc(OC)c(-c2cc(NS(=O)(=O)c3c(OC)cccc3OC)no2)c1` [Example 69, Methyl 3-(3-((2,6-dimethoxyphenyl)sulfonamido)isoxazol-5-yl)-4-methoxybenzoate], the IC50 [5] is reported as 0.845 µM and the IC50 [6] is reported as 0.261 µM.
`O=S(=O)(Nc1noc(-c2ccccc2)n1)c1ccccc1F` [Example 68, 2-Fluoro-N-(5-phenyl-1,2,4-oxadiazol-3-yl)benzenesulfonamide] was tested, and the IC50 ([4]; MOZ-KAT6A, 1 μM AcCoA, histone H3.1) was 92.4 µM.

Reference: patent US20240277683A1, “COMPOUNDS” (CTXT PTY LTD, priority 2018, published 2024)
